## Apparent affinities of Ab-95 variants for a coronavirus HR2 peptide

Values reported by Engelhart et al. 2022, doi:10.1038/s41597-022-01779-4 (FLAb copy).

Antigen: PDVDLGDISGINAS, a 14-residue peptide of the SARS-CoV-2 spike HR2 region.

Ab-95 is the parent antibody, in scFv form: VH, then a 15-residue (Gly4Ser)3 linker, then VL. The heavy chain is unchanged in all variants.
VH: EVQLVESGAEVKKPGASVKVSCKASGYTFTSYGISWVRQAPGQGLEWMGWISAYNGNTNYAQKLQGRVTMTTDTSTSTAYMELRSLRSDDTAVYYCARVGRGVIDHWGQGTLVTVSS
VL: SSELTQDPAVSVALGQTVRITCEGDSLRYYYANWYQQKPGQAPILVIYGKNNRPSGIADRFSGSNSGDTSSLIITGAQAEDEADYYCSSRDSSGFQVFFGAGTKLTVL

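Phage display of a naive human antibody library on the peptide gave the parent. In library AAYL52, one, two or three CDR residues were substituted; doubles and triples were drawn at random. Affinity was read by AlphaSeq, a pooled yeast mating assay with surface-displayed partners. Binding brings cells together so that they mate, and sequencing counts the barcode pairs among the diploids. Each replicate has its own calibration line, from reference interactions of the BCL2 family. Each pool was mated in three replicate cultures.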

Positions count from residue 1 of the parent VL; Y29S puts S in place of Y.
This list gathers variants with a substitution at S93 (VL, numbered from residue 1).
Values are apparent Kd, the geometric mean of the replicates that gave a signal; lower means stronger binding.
An entry "no signal" has no value in the source: the pair was not observed among the diploids in any replicate. This suggests poor binding but is not conclusive.
In this assay the parent's reference entry averaged 200 nM; its copy inside this library read 180 nM.
Background: pairings of library AAYL52 with three empty control strains gave a value in 28% of cases (median 8.2 µM, 5th percentile 800 nM). Values in that range, when seen in few replicates, are hard to tell from nonspecific mating.

- Y29S+S93Y: 1.0 µM (1 of 3 replicates)
- Y30H+S93T+F95R: 48 nM (3 of 3 replicates)
- Y29D+Y31F+S93W: 390 nM (3 of 3 replicates)
- D25V+Y31K+S93C: 620 nM (3 of 3 replicates)
- S88Q+R90W+S93Q: no signal (0 of 3 replicates)
- A32D+S93V+Q96F: no signal (0 of 3 replicates)
- S88I+D91Q+S93L: 670 nM (2 of 3 replicates)
- G24P+S55R+S93D: 4.4 µM (2 of 3 replicates)
- Y31Q+K50T+S93K: 85 nM (3 of 3 replicates)
- S93R+Q96E: 910 nM (3 of 3 replicates)
- P54M+R90P+S93M: 1.1 µM (3 of 3 replicates)
- S55P+S93Q: 650 nM (3 of 3 replicates)
- R28S+P54E+S93N: 2.8 µM (2 of 3 replicates)
- S26A+R53A+S93K: 15 µM (2 of 3 replicates)
- L27N+N51T+S93L: 2.9 µM (2 of 3 replicates)
- G24W+S93Y+Q96N: 18 µM (1 of 3 replicates)
- D25I+S89T+S93G: 1.9 µM (3 of 3 replicates)
- S92C+S93G+V97K: 7.3 µM (3 of 3 replicates)
- E23V+P54K+S93N: 1.3 µM (3 of 3 replicates)
- G24V+N33K+S93G: 7.4 µM (3 of 3 replicates)
- N33V+K50V+S93H: no signal (0 of 3 replicates)
- D25I+Y31R+S93L: 930 nM (3 of 3 replicates)
- D25F+N33P+S93D: 5.0 µM (2 of 3 replicates)
- S93L: 250 nM (3 of 3 replicates)
- S26E+Y30T+S93Q: 1.6 µM (3 of 3 replicates)
- R90S+S93C: 130 nM (3 of 3 replicates)
- G24N+N33E+S93Y: 54 µM (2 of 3 replicates)
- R53C+S92A+S93K: 2.1 µM (1 of 3 replicates)
- S55A+S93H+G94Y: 920 nM (3 of 3 replicates)
- E23W+D25T+S93A: 94 nM (2 of 3 replicates)
- P54M+S93Q+Q96V: 190 µM (1 of 3 replicates)
- E23A+D91K+S93L: 760 nM (2 of 3 replicates)
- Y31D+S93Y+Q96K: 33 nM (3 of 3 replicates)
- Y30Q+G49C+S93E: 10 µM (3 of 3 replicates)
- Y31P+S55C+S93A: 63 nM (3 of 3 replicates)
- S92Q+S93Y+V97T: 21 µM (1 of 3 replicates)
- A32E+S55R+S93H: 6.5 µM (3 of 3 replicates)
- K50H+R90W+S93K: 23 µM (2 of 3 replicates)
- S93C+Q96L+V97Y: 280 nM (3 of 3 replicates)
- G24P+D91F+S93D: 49 µM (2 of 3 replicates)
- Y31T+R90S+S93D: 37 µM (1 of 3 replicates)

The first 7 entries again:

changes,apparent Kd,seen in
Y29S+S93Y,1.0 µM,1/3
Y30H+S93T+F95R,48 nM,3/3
Y29D+Y31F+S93W,390 nM,3/3
D25V+Y31K+S93C,620 nM,3/3
S88Q+R90W+S93Q,no signal,0/3
A32D+S93V+Q96F,no signal,0/3
S88I+D91Q+S93L,670 nM,2/3